# Measured affinities in a library of Ab-14 light chain variants

The target is the same throughout: PDVDLGDISGINAS, from the HR2 region of SARS-CoV-2 spike.

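Phage display of a naive human antibody library on the peptide gave the parent. The library (AAYL50) carries one to three amino acid substitutions per variant, with no insertions or deletions. AlphaSeq pools MATa yeast showing the antibodies with MATalpha yeast showing the peptide. Binding brings cells together so that they mate, and sequencing counts the barcode pairs among the diploids. The ratio of observed to expected reads was calibrated, replicate by replicate, on BCL2-family standards whose Kd was known from biolayer interferometry. The assay was run in three technical replicates.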

Parent: Ab-14, a human scFv built as VH, three GGGGS repeats, VL. Only the CDRs of the light chain vary.
VH: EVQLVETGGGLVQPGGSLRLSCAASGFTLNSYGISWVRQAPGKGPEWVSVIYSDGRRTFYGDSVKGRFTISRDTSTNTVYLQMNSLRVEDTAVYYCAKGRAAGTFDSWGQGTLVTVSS
VL: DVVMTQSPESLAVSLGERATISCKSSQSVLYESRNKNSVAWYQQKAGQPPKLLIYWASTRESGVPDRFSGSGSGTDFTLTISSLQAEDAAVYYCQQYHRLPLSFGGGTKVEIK

Each variant is given by its three light chain CDRs, as the data file delimits them; those of the parent are KSSQSVLYESRNKNSVA, WASTRES, QQYHRLPLS.
Numbers give log10(Kd / nM), so 0 is 1 nM and 3 is 1 µM. Smaller is tighter.
A pair that was not seen in that replicate is written "n.d."; this usually means weak binding, but a binder can also be missed.
As a blank, each scFv also met three strains without target: over library AAYL50, 18% of these pairings were detected, typically at 4.19 and seldom below 2.99. Also given: how often the same scFv was detected with the empty control strains, with their mean in brackets.

| # | CDR-L1 | CDR-L2 | CDR-L3 | log10 Kd, replicates | signal with controls |
|---|---|---|---|---|---|
| 1 | KKSQSVLYESRNKNAVA | MASTRES | QQYHRLPLS | 0.56 1.24 1.48 | 0/9 |
| 2 | KSSKSVLYESRNKNSVA | WASTRES | LQYHRTPLS | n.d. n.d. n.d. | 0/9 |
| 3 | KSSQPVLYESRNKNSVA | WASTRES | QQYHRLPTS | 0.64 1.05 0.83 | 0/9 |
| 4 | KSSQSGLYESINKNSVA | WASYRES | QQYHRLPLS | 1.41 2.49 2.78 | 0/9 |
| 5 | KHAQSVLYESRNKNNVA | WASTRES | QQYHRLPLS | 0.80 0.90 0.85 | 1/9 (3.54) |
| 6 | RSSQSVLYESRNKNSVR | WASTRES | QQYHREPLS | n.d. n.d. n.d. | 2/9 (3.17) |
| 7 | KKSQSVLYESRNKNSVA | WASTRQS | QQYHRKPLS | n.d. n.d. n.d. | 0/9 |
| 8 | KLSQSVLYESRNKNSVA | WASTRES | QSNHRLPLS | 3.36 3.56 n.d. | 0/9 |
| 9 | KSSQSVLYESRNKNLVA | WAWTRES | QQYHRLPPS | n.d. n.d. 5.47 | 5/9 (4.58) |
| 10 | KSSQMVLYESRNKNSVA | WASTRES | HQYHRNPLS | n.d. 4.56 n.d. | 1/9 (5.14) |
| 11 | KSSQSVLYESRNKNSVA | WASTRES | QNWHRLGLS | 1.25 1.24 1.56 | 0/9 |
| 12 | KSTQSKLYESRNKNSVA | WASTRES | QQYHRNPLS | 4.48 n.d. n.d. | 3/9 (4.23) |
| 13 | KSSQSVLEESRNKNSVY | WASTRES | DQYHRLPLS | n.d. 5.64 5.75 | 8/9 (4.81) |
| 14 | KSSQSVLYKSRNKNSVA | WASTRES | QCYKRLPLS | n.d. 4.76 n.d. | 1/9 (5.39) |
| 15 | KSSPSVLYESRNKNSVA | WAATRES | QQYHRLPLS | n.d. n.d. n.d. | 0/9 |
| 16 | KCSQSVLYESKNKNSVA | WASGRES | QQYHRLPLS | 4.37 2.75 n.d. | 1/9 (4.87) |
| 17 | KSSQSVLYESREKNSVA | WASPRES | QQYHRYPLS | 5.11 n.d. 4.09 | 4/9 (4.45) |
| 18 | KSSQSVLYESRNKNSVS | WDSTRES | QQDHRLPLS | 4.17 n.d. n.d. | 1/9 (3.89) |
| 19 | KSCQSVLYESRNKNSVA | QASTRES | QQYHRLLLS | n.d. n.d. n.d. | 0/9 |
| 20 | KSSQSVLNEDRNKNSVA | WASTRES | QQYHRLPYS | 0.66 1.00 0.75 | 6/9 (4.59) |
| 21 | CSRQSVLYESRNKNSVA | WASTRES | QQYHRLPLC | n.d. 5.32 4.95 | 4/9 (5.01) |
| 22 | KSSQSVLYESRYKSSVA | WASTQES | QQYHRLPLS | n.d. n.d. n.d. | 0/9 |
| 23 | KSSQSVLYESRNKNSVA | WASVRPR | QQYHRLPLS | 2.10 2.54 3.04 | 0/9 |
| 24 | KSSQSVLWESRNKNSVA | WASTRES | QQYHRRPLS | n.d. n.d. n.d. | 0/9 |
| 25 | KSSQSVCYESRNKNSVA | WASSRES | QQYHRLPLS | 1.34 1.31 1.54 | 2/9 (3.60) |
| 26 | KSSQSVLYESRNKNNDA | WASTRES | QQYHPLPLS | 6.20 n.d. n.d. | 1/9 (4.52) |
| 27 | KSSQSVLYLSRNKNSVP | WASTRES | QQYHRHPLS | n.d. n.d. 4.35 | 7/9 (4.49) |
| 28 | KSSQSVLYESRNKNSVA | WDSTRES | QNPHRLPLS | n.d. n.d. n.d. | 0/9 |
| 29 | KSSQSVCYESRNKESVA | WASTRES | VQYHRLPLS | 5.44 n.d. n.d. | 6/9 (4.49) |
| 30 | KSSVSVLYESRNWNSVA | WASHRES | QQYHRLPLS | 2.92 3.08 3.29 | 4/9 (4.54) |
| 31 | KSSQSVLYRSRNYNPVA | WASTRES | QQYHRLPLS | 3.64 2.64 2.72 | 6/9 (4.63) |
| 32 | KSCQSVLYESRNKNSVA | WASTRGS | QQYIRLPLS | 1.57 2.10 1.57 | 1/9 (3.11) |
| 33 | HSSQSVLKESRNKNSVA | WASTQES | QQYHRLPLS | n.d. n.d. n.d. | 0/9 |
| 34 | RSSQSVLYLSRNKNSVA | WASTRES | QQYHLLPLS | 5.08 2.94 3.10 | 2/9 (4.03) |
| 35 | KSSQSCLYEKRNKNSVA | WASTRES | QQYHRLPKS | 3.15 2.69 n.d. | 2/9 (3.71) |
| 36 | KSLQSVLMESRNKNSVA | WASTRES | QQYHRLPNS | n.d. n.d. n.d. | 0/9 |
| 37 | KSSQSVLYESYNKNSVA | WAMTRES | QQYHRFPLS | n.d. n.d. n.d. | 0/9 |
| 38 | KSSQSVLYESRNRNSVA | WAWTRES | QQYHRTPLS | n.d. n.d. n.d. | 0/9 |
| 39 | KSSQSVLYESRNKCSVA | WASTRES | QQWHRLPLS | n.d. n.d. n.d. | 2/9 (4.97) |
| 40 | KSSQSVLYESRNKNSVF | WASTRES | MQYHRLPLS | n.d. 5.52 n.d. | 1/9 (4.45) |
| 41 | KSSQGVGYESRNKNSVA | WASTRES | QQYHRVPLS | 1.34 1.48 1.51 | 3/9 (4.52) |
| 42 | KSSQSVRYESKNKNSVA | WAKTRES | QQYHRLPLS | 3.75 2.89 2.72 | 1/9 (3.87) |

The opening 7 entries, copied out:

CDR-L1,CDR-L2,CDR-L3,"log10 Kd, replicates",signal with controls
KKSQSVLYESRNKNAVA,MASTRES,QQYHRLPLS,0.56 1.24 1.48,0/9
KSSKSVLYESRNKNSVA,WASTRES,LQYHRTPLS,n.d. n.d. n.d.,0/9
KSSQPVLYESRNKNSVA,WASTRES,QQYHRLPTS,0.64 1.05 0.83,0/9
KSSQSGLYESINKNSVA,WASYRES,QQYHRLPLS,1.41 2.49 2.78,0/9
KHAQSVLYESRNKNNVA,WASTRES,QQYHRLPLS,0.80 0.90 0.85,1/9 (3.54)
RSSQSVLYESRNKNSVR,WASTRES,QQYHREPLS,n.d. n.d. n.d.,2/9 (3.17)
KKSQSVLYESRNKNSVA,WASTRQS,QQYHRKPLS,n.d. n.d. n.d.,0/9

Data: MIT Lincoln Laboratory AlphaSeq set, Engelhart et al. 2022, doi:10.1038/s41597-022-01779-4, as distributed in FLAb.